Test results: patent publication US8609723B2, “Long acting curcumin derivative, preparation method and pharmaceutical use thereof” (Beijing Dingguochangsheng Biotech., Co., Ltd., priority 2008, dated 2013)

Test: Detection of curcumin in plasma of mice (HPLC-MS/MS)
Assay type: in vivo
Settings: subcutaneous injection 100 mg/kg, single administration
Procedure: Administration Pathway: Mice were administered by subcutaneous injection, with a dosage of 100 mg/kg body weight. Blood samples were collected from eye at 5 min, 10 min, 30 min, 45 min, 1 h, 1.5 h, 2 h, 6 h and Day 2, 3, 4, 5, 6, 7 after administration, respectively, with 6 mice/sampling point. The blood samples were placed into blood collection tubes which had been coated with heparin, and then centrifuged. Subsequently, 0.2 ml supernatant was collected, extracted twice with ethyl acetate, frozen and dried out in vacuum, dissolved in methanol to make a final volume of 0.2 ml, and used for HPLC assay.
Approximately 0.5 mg curcumin was added to a certain amount of peanut oil, to resulting in a final concentration of 0.5 mg/ml. Different concentrations of curcumin was added to a blank plasma sample precisely. The standard samples were prepared in accordance with the plasma samples. […]
Selective multi-reaction monitoring, ion reaction for quantitative analysis and the corresponding Declustering Potential (DP), Collision Energy (CE), Entrance Potential (EP) are m/z 367.1˜216.9, DP: −50 V, CE: −15 V, EP: −6 V, respectively.
The content of curcumin in the plasma was measured by HPLC-MS/MS. […] By then, curcumin can still be detected in plasma of mice.

curcumin decanoate [long acting curcumin]
content value of curcumin in the plasma reached peak: 1 days
curcumin can still be detected in plasma (plateau period until): ≥ 7 days
